The target of series [1] is p53 Y220C (Homo sapiens, UniProt P04637, P309S/R273H/Y220C). Put plainly: DNA binding test (HTRF): binding of P53Y220C protein to DNA. It counts as biochemical. As to conditions: HTRF, activation of p53 Y220C (aa 94-312) binding to biotin DNA. As to the method: (§1) In order to detect the ability of the aforementioned compounds to increase the binding of P53Y220C protein to DNA, the binding activity of p53 Y220C was measured by homogeneous time-resolved fluorescence (HTRF). Recombinant His-tagged p53 Y220C for HTRF measurement was expressed in bacteria E. coli. The recombinant protein was a truncated mutant containing only amino acids 94-312 of p53, and its sequence was […] […] VEGNLR VEYLDDRN TFRh[…] […]. The sense strand of the DNA double strand was 5′-[…]-3′, with a biotin tag at the 5′ end for activity assay, and the antisense strand was 5′-[…]-3′ 40 mL of assay buffer (20 mM Tris HCL, pH 7.5, 50 mM NaCl, 2 mM MgCl2, 0.02% Tween 20, 0.01% BSA, 1 mM DTT) was prepared. 10 mM compound was prepared and subjected to 3-fold dilution to obtain 10 dose gradient dilutions of the compound. 20 nL of the compound was added to a 384-well assay plate (PerkinElmer 6007299) using an Echo 655 Liquid Handler. P53Y220C protein was dissolved in assay buffer to reach a final concentration of 150 nM, and 5 μL thereof was added to each well, and incubated at room temperature for 5 min. DNA was dissolved in assay buffer to reach a final concentration of 150 nM, and 5 μL thereof was added to each well, and incubated at room temperature for 15 min. Anti 6HIS-XL665 (Cisbio 61HISXLB) was dissolved in assay buffer to reach a final concentration of 20 nM, and 5 μL thereof was added to each well. Streptavidin-Eu cryptate (Cisbio 610SAKLA) was dissolved in assay buffer to reach a final concentration of 0.625 nM, and 5 μL thereof was added to each well, and incubated at 27° C. for 1 hour. The plate was then read for signal values on an Envision (PerkinElmer 2105-0020) plate reader at 665 nm and 615 nm, respectively. GraphPad 9.0 was used to fit activation rate and compound concentration into a nonlinear regression curve (dose response-variable slope) to calculate EC50, and EC50 could be defined as the concentration required for the compound to achieve 50% effect. Activation rate={(A-C)/(C)}*100%, A=(signal value at 665 nm/signal value at 615 nm); C=average signal of negative control (wherein, negative control referred to 0.1% DMSO).
On the technique in general: In TR-FRET formats the signal depends on donor and acceptor labels being close together.

Chains of the proteins cited; added tags and fusions are not shown.
UniProt P08684, whole entry: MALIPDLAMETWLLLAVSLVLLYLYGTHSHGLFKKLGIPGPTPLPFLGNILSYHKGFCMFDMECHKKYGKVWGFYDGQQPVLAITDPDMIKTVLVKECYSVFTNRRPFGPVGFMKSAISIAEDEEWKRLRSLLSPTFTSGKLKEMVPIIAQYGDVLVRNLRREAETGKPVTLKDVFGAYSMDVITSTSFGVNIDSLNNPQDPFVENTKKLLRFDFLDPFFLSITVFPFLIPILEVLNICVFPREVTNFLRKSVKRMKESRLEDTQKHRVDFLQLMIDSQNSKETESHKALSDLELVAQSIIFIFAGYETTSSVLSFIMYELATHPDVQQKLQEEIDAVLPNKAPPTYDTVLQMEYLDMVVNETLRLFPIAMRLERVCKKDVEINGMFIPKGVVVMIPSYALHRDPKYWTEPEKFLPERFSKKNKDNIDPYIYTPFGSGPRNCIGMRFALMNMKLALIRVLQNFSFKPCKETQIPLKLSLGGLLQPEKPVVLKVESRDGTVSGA

The target in series [2] is p53 Y220C (Homo sapiens, UniProt P04637, Y220C). Described as above. Particulars: multiple ratio of EC50 of the compound to the reference compound, DNA binding test. It counts as biochemical. As to the method: as §1
The test system of the next series is NUGC-3 cells. Put plainly: NUGC-3 cell proliferation assay (CTG). Particulars: for Compound GI50 (nM)/Reference compound GI50 (nM): multiple ratio of GI50 of the compound to the reference compound; for GI50: 6 days, CTG. As to the method:
In order to detect the inhibitory effect of the aforementioned compounds on the proliferation ability of NUGC-3 cells, 250 NUGC-3 cells (Nanjing Cobioer Biosciences Co., Ltd., CBP60492) were seeded into a 384-well plate (Corning 3765), 35 μL per well, and incubated overnight in a constant temperature incubator at 37° C. and 5% CO2. Then, 40 nL of the compound was added to the 384-well plate using an Echo 655 Liquid Handler, with a maximum final concentration of 10 μM, 1:3 serial dilutions, and a total of 10 doses. The culture was performed at 37° C. and 5% CO2 for 6 days. The plate was taken out from the incubator and equilibrated at room temperature for 10 minutes. 20 μL of CTG (Promage G7572) was added to each well of the plate according to the platemap. The plate was centrifuged at 1000 rpm for 1 min. The lysis of cells was induced by mixing on a shaker for 2 min. The plate was centrifuged at 1000 rpm for 1 min. Incubation was performed at room temperature for 10 min to stabilize luminescence signals. Luminescence values were recorded by Envision (PerkinElmer 2105-0020). GraphPad 9.0 was used to fit the inhibition rate and compound concentration into a nonlinear regression curve (dose response-variable slope) to calculate GI50, inhibition rate={1−(A−B)/(C−B)}*100%, A=signal value of compound; B=average signal of blank control; C=average signal of negative control (wherein negative control was 0.1% DMSO).

A further series concerns the target CYP 3A4 (Homo sapiens, UniProt P08684). Put plainly: CYP 3A4 time-dependent inhibition test. As to conditions: midazolam substrate.
A short description of series [3]: Pharmacokinetic test in mice. As to conditions: mouse. As to the method: ICR male mice (15 to 35 g, 5 to 10 weeks old, Shanghai Xipuer-Bikai Experimental Animal Co., Ltd.) were selected as test animals in this study. The LC-MS/MS method was used to quantitatively determine drug concentrations in the plasma of mice at different time points after intravenous injection or oral gavage administration of the test compound to evaluate the pharmacokinetic characteristics of the compound in mice. The clear solution of the test compound was injected into ICR mice via the tail vein (without fasting, solvent: 40% hydroxypropyl-β-cyclodextrin) and administered to ICR mice by oral gavage (fasting for 10 to 14 hours, free drinking water, solvent: 0.2% hydroxypropyl cellulose, 0.5% Tween 80). For intravenous administration, blood was collected from the submandibular venous plexus at 0.033, 0.083, 0.25, 0.5, 1, 2, 4, 8, and 24 hours after administration, placed in an anticoagulant tube with EDTA-K2 (Jiangsu Kangjian Medical Supplies Co., Ltd.), mixed, and centrifuged at 2-8° C., 6800 g for 6 minutes to obtain plasma; for oral gavage administration, blood was collected from the submandibular venous plexus at 0.083, 0.25, 0.5, 1, 2, 4, 6, 8, and 24 hours after administration, placed in an anticoagulant tube with EDTA-K2 (Jiangsu Kangjian Medical Supplies Co., Ltd.), mixed, and centrifuged at 2-8° C., 6800 g for 6 minutes to obtain plasma. The blood drug concentration was determined by LC-MS/MS, and the relevant pharmacokinetic parameters were calculated by the non-compartmental linear logarithmic trapezoidal method using Phoenix WinNonlin™ Version 7.0 (Pharsight, USA) pharmacokinetic software.

For a further series, the system named is BxPC-3 cells. Put plainly: BxPC-3 cell proliferation test (CTG). Particulars: 6 days. As to the method:
To detect the inhibitory effects of the aforementioned compounds on the proliferation ability of BxPC-3 cells, 125 BxPC-3 cells (ATCC®CRL-1687) were seeded into a 384-well plate (Corning 3765), 35 μL per well, and placed in a constant temperature incubator at 37° C. and 5% CO2 overnight. Then, 40 nL of the compound was added to the 384-well plate using an Echo 655 Liquid Handler, with a maximum final concentration of 10 μM, 1:3 serial dilution, and in a total of 10 doses. Incubation was performed at 37° C., 5% CO2 for 6 days. The plate was taken out from the incubator and equilibrated at room temperature for 10 minutes. 20 μL of CTG (Promage G7572) was added to each well of the plate according to the platemap. The plate was centrifuged at 1000 rpm for 1 minute. The lysis of cells was induced by mixing on a shaker for 2 minutes. The plate was centrifuged at 1000 rpm for 1 minute. Incubation was performed at room temperature for 10 minutes to stabilize luminescence signals. Luminescence values were recorded by Envision (PerkinElmer 2105-0020). GraphPad 9.0 was used to fit the inhibition rate and compound concentration into a nonlinear regression curve (dose response-variable slope) to calculate GI50, inhibition rate={1−(A−B)/(C−B)}*100%, A=signal value of compound; B=average signal of blank control; C=average signal of negative control (wherein the negative control was 0.1% DMSO).

pEC50: −log10 of the molar value. Like-named read-outs stand apart in the source and are kept apart here. Marks after values point to notes of the source that are not given here.

Usually pEC50 stands for the EC50 on a negative log10 scale, so that one unit is a factor of ten. Higher therefore signals a low EC50. On p53 Y220C [1], `COc1cc(S2(=O)=NCCCC2)ccc1NCC#Cc1cc2c(NC3CCN(C)CC3F)cccc2n1CC(F)(F)F` (single isomer, unassigned) [Compound 37e] gave a pEC50 of over 7.00. The “Compound EC50 (nM)/Reference compound EC50 (nM)” value (“Compound EC50” below) at p53 Y220C [2] is “B (B: EC50 of the reference compound<EC50 of the compound≤3.0*EC50 of the reference compound)”. In the series with NUGC-3 cells, the “Compound GI50 (nM)/Reference compound GI50 (nM)” value (from here on “Compound GI50”) is reported as “B (B: GI50 of the reference compound < GI50 of the compound ≤ 3.0 * GI50 of the reference compound)”.

For the compound `COc1cc(S2(=O)=NCCCC2)ccc1NCC#Cc1cc2c(NC3CCN(C)CC3F)cccc2n1CC(F)(F)F` (single isomer, unassigned) [Compound 37g], on p53 Y220C [1], the pEC50 is over 7.00. At p53 Y220C [2], the “Compound EC50” value is “A (A: EC50 of the compound≤EC50 of the reference compound)”. For the same compound, the “Compound GI50” value in the series on NUGC-3 cells is given as “A (A: GI50 of the compound ≤ GI50 of the reference compound)”.

The GI50 is the concentration that inhibits growth by half. As to `CNC(=O)c1ccc(NCC#Cc2nc3c(NC4CCC(N5CCOC6(CC6)C5)CC4)cccn3c2CC(F)(F)F)c(OC)c1` (single isomer, unassigned) [Compound 32a], the pEC50 at p53 Y220C [1] is 6.30 to 7.00. The “Compound EC50” value at p53 Y220C [2] is “C (C: EC50 of the compound≥3*EC50 of the reference compound)”. In addition, in the series with NUGC-3 cells, the GI50 is over 5000 nM and the “Compound GI50” value is “C (C: GI50 of the compound ≥ 3 * GI50 of the reference compound)”.

What is called IC50 is the midpoint of a concentration-inhibition curve. The term AUC denotes concentration integrated over time. High values mean high exposure, low ones low exposure. As usually defined, the Cmax is the highest concentration seen after dosing. For `CNC(=O)c1ccc(NCC#Cc2nc3c(NC4CCC(N5CCOCC5)CC4F)cccn3c2CC(F)(F)F)c(OC)c1` (stereo not drawn), the IC50 at CYP 3A4 (read-out: IC50 (μM) 0 min, 0 min pre-incubation) came to 3.87 µM; on CYP 3A4 (read-out: IC50 (μM) 30 min, with NADPH, 30 min pre-incubation with NADPH) it was 1.99 µM; at CYP 3A4 (read-out: IC50 (μM) 30 min, without NADPH, 30 min pre-incubation without NADPH), 7.06 µM. This compound also showed a pEC50 on p53 Y220C [1] of over 7.00. Besides, the “Compound EC50” value at p53 Y220C [2] was “B (B: EC50 of the reference compound<EC50 of the compound≤3.0*EC50 of the reference compound)”. The GI50 in the series with NUGC-3 cells and in the series on BxPC-3 cells was under 1000 nM each time. The “Compound GI50” value in the series on NUGC-3 cells is “B (B: GI50 of the reference compound < GI50 of the compound ≤ 3.0 * GI50 of the reference compound)”. In series [3] (iv 2.5 mpk), the “CL” value came to 13 mL/min/kg. Moreover, the “AUC” value in series [3] (po 25 mpk, plasma) came to 43085 ng·h/mL. For the same compound, the “Cmax” value in series [3] (po 25 mpk, plasma) stood at 11831 ng/mL.

As to `COc1cc(S(C)(=O)=O)ccc1NCC#Cc1nc2c(NC3CCC(N4CC5(COC5)C4)CC3F)cccn2c1CC(F)(F)F` (stereo not drawn), the pEC50 at p53 Y220C [1] was over 7.00. Besides, the “Compound EC50” value on p53 Y220C [2] was “A (A: EC50 of the compound≤EC50 of the reference compound)”. The GI50 in the series with NUGC-3 cells and in the series with BxPC-3 cells was under 1000 nM in each case. For the same compound, the “Compound GI50” value in the series with NUGC-3 cells was “B (B: GI50 of the reference compound < GI50 of the compound ≤ 3.0 * GI50 of the reference compound)”.

`COc1cc(S2(=O)=NCCCC2)ccc1NCC#Cc1cc2c(NC3CCN(C)CC3F)cccc2n1CC(F)(F)F` (single isomer, unassigned) [Compound 37f] gave a pEC50 at p53 Y220C [1] of over 7.00. In addition, on p53 Y220C [2], the “Compound EC50” value was “B (B: EC50 of the reference compound<EC50 of the compound≤3.0*EC50 of the reference compound)”. Besides, the “Compound GI50” value in the series on NUGC-3 cells is “C (C: GI50 of the compound ≥ 3 * GI50 of the reference compound)”.

`COc1cc(S2(=O)=NCCCC2)ccc1NCC#Cc1cc2c(NC3CCN(C)CC3F)cccc2n1CC(F)(F)F` (single isomer, unassigned) [Compound 37h] gave a pEC50 on p53 Y220C [1] of over 7.00. The “Compound EC50” value at p53 Y220C [2] is on record as “B (B: EC50 of the reference compound<EC50 of the compound≤3.0*EC50 of the reference compound)”. For the same compound, the “Compound GI50” value with NUGC-3 cells is on record as “C (C: GI50 of the compound ≥ 3 * GI50 of the reference compound)”.

Take `CNC(=O)c1ccc(NCC#Cc2nc3c(NC4CCC(N5CCOC6(CC6)C5)CC4)cccn3c2CC(F)(F)F)c(OC)c1` (single isomer, unassigned) [Compound 31a]: the pEC50 at p53 Y220C [1] is 6.00 to 6.30. Also, the “Compound EC50” value on p53 Y220C [2] was “C (C: EC50 of the compound≥3*EC50 of the reference compound)”. Besides, in the series with NUGC-3 cells, the GI50 is over 5000 nM and the “Compound GI50” value is listed as “C (C: GI50 of the compound ≥ 3 * GI50 of the reference compound)”.

These data come from US20260132128A1, “COMPOUND FOR RECOVERING P53 MUTATION FUNCTION AND USE THEREOF” (SHENZHEN ZHONGGE BIOLOGICAL TECHNOLOGY CO., LTD., priority 2022, published 2026).
